Results taken from patent US7786328B2, “Cyclohexyl-1,4-diamine compounds” (dated 2010).

Amino acid sequences for entries named in this document (tags omitted).
UniProt P35372, whole entry, looked up: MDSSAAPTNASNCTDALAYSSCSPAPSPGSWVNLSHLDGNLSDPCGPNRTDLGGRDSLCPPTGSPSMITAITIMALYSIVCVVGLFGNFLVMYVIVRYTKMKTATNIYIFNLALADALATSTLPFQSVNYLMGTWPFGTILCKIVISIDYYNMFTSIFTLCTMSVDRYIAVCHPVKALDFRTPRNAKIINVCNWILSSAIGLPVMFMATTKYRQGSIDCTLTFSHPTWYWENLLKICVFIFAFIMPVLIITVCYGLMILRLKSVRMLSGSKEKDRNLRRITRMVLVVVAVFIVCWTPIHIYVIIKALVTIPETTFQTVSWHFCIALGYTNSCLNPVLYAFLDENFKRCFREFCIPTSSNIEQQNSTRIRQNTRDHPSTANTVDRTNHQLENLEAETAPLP

biological target: human μ-opiate receptor (Homo sapiens, UniProt P35372); assay: Measurement of the μ binding ([3H]-naloxone displacement, CHO-K1 membrane preparation); details: test substance 1 μM; inhibition of specific binding of 1 nmol/l [3H]-naloxone

Structure (SMILES)	μ-Opiate receptor [1 μM], % inhibition [%]
Cc1cccc(CC2(N(C)C)CCC(NC(=O)COc3ccccc3)CC2)c1 (centres unmarked)	93
Cc1ccc(CC2(N(C)C)CCC(NC(=O)CSCc3ccccc3)CC2)cc1 (centres unmarked)	77
CC(=O)OC(C(=O)NC1CCC(Cc2ccccc2C)(N(C)C)CC1)c1ccccc1 (centres unmarked)	76
CC(=O)OC(C(=O)NC1CCC(Cc2ccc(C)cc2)(N(C)C)CC1)c1ccccc1 (centres unmarked)	49
Cc1ccccc1CC1(N(C)C)CCC(NC(=O)c2ccccc2Oc2ccccc2)CC1 (centres unmarked)	85
O=C(CCc1ccccc1OC(=O)c1ccccc1)NC1CCC(c2ccccc2)(N2CCCCC2)CC1 (centres unmarked)	44
CN(C)C1(Cc2cccc(Cl)c2)CCC(NC(=O)CCc2ccccc2OC(=O)c2ccccc2)CC1 (centres unmarked)	42
CN(C)C1(Cc2ccccc2)CCC(NC(=O)COc2ccc(Cl)cc2)CC1 (centres unmarked)	71
CC(Oc1ccccc1)C(=O)NC1CCC(Cc2ccc(F)cc2)(N(C)C)CC1 (centres unmarked)	77
CC(Oc1ccccc1)C(=O)NC1CCC(Cc2cccc(F)c2)(N(C)C)CC1 (centres unmarked)	57
CC(=O)OC(C(=O)NC1CCC(Cc2ccccc2)(N(C)C)CC1)c1ccccc1 (centres unmarked)	66
Cc1ccccc1CC1(N(C)C)CCC(NC(=O)COc2ccc(Cl)cc2)CC1 (centres unmarked)	80
CN(C)C1(Cc2cccc(Cl)c2)CCC(NC(=O)COCc2ccccc2)CC1 (centres unmarked)	71
CN(C)C1(Cc2ccc(F)cc2)CCC(NC(=O)c2ccccc2Oc2ccccc2)CC1 (centres unmarked)	79
CN(C)C1(Cc2ccccc2Cl)CCC(NC(=O)c2ccccc2Oc2ccccc2)CC1 (centres unmarked)	82
CC(=O)OC(C)(C)C(=O)NC1CCC(Cc2ccccc2)(N(C)C)CC1 (centres unmarked)	43
COC(=O)CCCC(=O)NC1CCC(Cc2cccc(Cl)c2)(N(C)C)CC1 (centres unmarked)	44
CN(C)C1(Cc2ccc(Cl)cc2)CCC(NC(=O)c2ccccc2COC(=O)c2ccccc2)CC1 (centres unmarked)	92
CN(C)C1(CCc2ccccc2)CCC(NC(=O)CCCOc2ccccc2)CC1 (centres unmarked)	58
O=C(CSc1ccc(C(F)(F)F)cn1)NC1CCC(c2ccccc2)(N2CCCCC2)CC1 (centres unmarked)	63
Cc1ccccc1CC1(N(C)C)CCC(NC(=O)CCCOc2ccccc2)CC1 (centres unmarked)	77

Structure (SMILES)	μ-Opiate receptor [1 μM], % inhibition [%]
CN(C)C1(Cc2ccccc2Cl)CCC(NC(=O)C(C)(C)Oc2ccccc2Cl)CC1 (centres unmarked)	89
O=C(OCc1ccccc1C(=O)NC1CCC(Cc2ccccc2)(N2CCCC2)CC1)c1ccccc1 (centres unmarked)	94
Cc1cccc(CC2(N(C)C)CCC(NC(=O)CSc3ccc(C(F)(F)F)cn3)CC2)c1 (centres unmarked)	55
CC(=O)OCC(=O)NC1CCC(CCc2ccccc2)(N(C)C)CC1 (centres unmarked)	68
CC(=O)OC(C(=O)NC1CCC(Cc2ccc(Cl)cc2)(N(C)C)CC1)c1ccccc1 (centres unmarked)	43
CN(C)C1(Cc2ccccc2Cl)CCC(NC(=O)c2ccccc2COC(=O)c2ccccc2)CC1 (centres unmarked)	90
CC(Oc1ccccc1)C(=O)NC1CCC(Cc2ccccc2Cl)(N(C)C)CC1 (centres unmarked)	82
Cc1cc(Cl)ccc1OCCCC(=O)NC1CCC(CCc2ccccc2)(N(C)C)CC1 (centres unmarked)	61
O=C(COc1ccccc1)NC1CCC(Cc2ccccc2)(N2CCCCCC2)CC1 (centres unmarked)	41
CC(Oc1ccccc1)C(=O)NC1CCC(Cc2ccccc2)(N(C)C)CC1 (centres unmarked)	61
CCC(Oc1ccccc1)C(=O)NC1CCC(Cc2ccccc2C)(N(C)C)CC1 (centres unmarked)	69
COc1ccc(Oc2ccc([N+](=O)[O-])cc2C(=O)NC2CCC(Cc3cccc(Cl)c3)(N(C)C)CC2)cc1 (centres unmarked)	77
O=C(COc1ccccc1)NC1CCC(Cc2ccccc2)(N2CCCCC2)CC1 (centres unmarked)	44
CC(=O)OC(C(=O)NC1CCC(Cc2cccc(F)c2)(N(C)C)CC1)c1ccccc1 (centres unmarked)	61
CCC(Oc1ccccc1)C(=O)NC1CCC(Cc2cccc(F)c2)(N(C)C)CC1 (centres unmarked)	57
CCC(Oc1ccccc1)C(=O)NC1CCC(Cc2ccccc2Cl)(N(C)C)CC1 (centres unmarked)	76
COC(=O)CCCC(=O)NC1CCC(Cc2ccc(F)cc2)(N(C)C)CC1 (centres unmarked)	43
CN(C)C1(c2ccccc2)CCC(NC(=O)C(C)(C)Oc2ccc(CCNC(=O)c3ccc(Cl)cc3)cc2)CC1 (centres unmarked)	104
COc1ccc(Oc2ccc([N+](=O)[O-])cc2C(=O)NC2CCC(Cc3cccc(F)c3)(N(C)C)CC2)cc1 (centres unmarked)	89
O=C(OCc1ccccc1C(=O)NC1CCC(Cc2ccccc2)(N2CCCCCC2)CC1)c1ccccc1 (centres unmarked)	51
CN(C)C1(Cc2cccc(Cl)c2)CCC(NC(=O)COc2ccc(Cl)cc2)CC1 (centres unmarked)	51

Structure (SMILES)	μ-Opiate receptor [1 μM], % inhibition [%]
Cc1ccccc1CC1(N(C)C)CCC(NC(=O)C(C)(C)Oc2ccccc2Cl)CC1 (centres unmarked)	82
Cc1ccccc1CC1(N(C)C)CCC(NC(=O)C(C)(C)Oc2ccc(C(N)=O)cc2)CC1 (centres unmarked)	67
CCC(Oc1ccccc1)C(=O)NC1CCC(Cc2ccccc2F)(N(C)C)CC1 (centres unmarked)	81
CN(C)C1(CCc2ccccc2)CCC(NC(=O)COc2cccc(Cl)c2)CC1 (centres unmarked)	84
CN(C)C1(Cc2ccc(F)cc2)CCC(NC(=O)C(C)(C)Oc2ccccc2Cl)CC1 (centres unmarked)	89
CN(C)C1(Cc2cccc(Cl)c2)CCC(NC(=O)COc2cccc(Cl)c2)CC1 (centres unmarked)	79
CN(C)C1(CCc2ccccc2)CCC(NC(=O)c2ccccc2COC(=O)c2ccccc2)CC1 (centres unmarked)	96
Cc1cccc(CC2(N(C)C)CCC(NC(=O)COc3ccc(Cl)cc3)CC2)c1 (centres unmarked)	64
CN(C)C1(Cc2ccc(Cl)cc2)CCC(NC(=O)COCc2ccccc2)CC1 (centres unmarked)	52
CN(C)C1(Cc2ccccc2)CCC(NC(=O)CSc2ccc(C(F)(F)F)cn2)CC1 (centres unmarked)	52
O=C(CCc1ccccc1OC(=O)c1ccccc1)NC1CCC(Cc2ccccc2)(N2CCCCC2)CC1 (centres unmarked)	46
CN(C)C1(Cc2ccc(F)cc2)CCC(NC(=O)c2ccccc2COC(=O)c2ccccc2)CC1 (centres unmarked)	95
Cc1ccccc1CC1(N(C)C)CCC(NC(=O)COCc2ccccc2)CC1 (centres unmarked)	82
CN(C)C1(Cc2cccc(F)c2)CCC(NC(=O)COc2cccc(Cl)c2)CC1 (centres unmarked)	63
CN(C)C1(Cc2cccc(F)c2)CCC(NC(=O)COc2ccc(Cl)cc2)CC1 (centres unmarked)	69
CN(C)C1(Cc2ccc(F)cc2)CCC(NC(=O)C(C)(C)Oc2ccc(C(N)=O)cc2)CC1 (centres unmarked)	69
CN(C)C1(Cc2ccccc2Cl)CCC(NC(=O)COc2ccc(Cl)cc2)CC1 (centres unmarked)	66
CCC(Oc1ccccc1)C(=O)NC1CCC(Cc2ccc(F)cc2)(N(C)C)CC1 (centres unmarked)	55
CC(Oc1ccccc1)C(=O)NC1CCC(Cc2ccccc2)(N2CCCC2)CC1 (centres unmarked)	44
CN(C)C1(CCc2ccccc2)CCC(NC(=O)CCc2ccccc2OC(=O)c2ccccc2)CC1 (centres unmarked)	67
